Values joined by “and” are separate entries in the source; they are usually repeats but may differ in a detail not shown here. Equal values may be shown once.
Columns and labels:
Format in all cases: biochemical
Conditions in all cases: 10µM
TSSK3/STK22C = target: T1, TSSK3/STK22C (Homo sapiens, UniProt Q96PN8); experiment: HotSpot kinase assay
T1 construct: purchased Reaction Biology Corporation

MUSK = target: T2, MUSK (Homo sapiens, UniProt O15146); experiment: HotSpot kinase assay
T2 construct: purchased Reaction Biology Corporation

LKB1 = target: T3, LKB1 (Homo sapiens, UniProt Q15831); experiment: HotSpot kinase assay
T3 construct: purchased Reaction Biology Corporation

EGFR = target: T4, EGFR (Homo sapiens, UniProt P00533)
T4 construct: purchased Reaction Biology Corporation

SGK2 = target: T5, SGK2 (Homo sapiens, UniProt Q9HBY8); experiment: HotSpot kinase assay
T5 construct: purchased Reaction Biology Corporation

MAST3 = target: T6, MAST3 (Homo sapiens, UniProt O60307); experiment: HotSpot kinase assay
T6 construct: purchased Reaction Biology Corporation

PKAcg = target: T7, PKAcg (Homo sapiens, UniProt P22612); experiment: HotSpot kinase assay
T7 construct: purchased Reaction Biology Corporation

SRPK1 = target: T8, SRPK1 (Homo sapiens, UniProt Q96SB4); experiment: HotSpot kinase assay
T8 construct: purchased Reaction Biology Corporation

MKK6 = target: T9, MKK6 (Homo sapiens, UniProt P52564); experiment: HotSpot kinase assay
T9 construct: purchased Reaction Biology Corporation

p70S6K/RPS6KB1 = target: T10, p70S6K/RPS6KB1 (Homo sapiens, UniProt P23443); experiment: HotSpot kinase assay
T10 construct: purchased Reaction Biology Corporation

FAK/PTK2 = target: T11, FAK/PTK2 (Homo sapiens, UniProt Q05397); experiment: HotSpot kinase assay
T11 construct: purchased Reaction Biology Corporation

AXL = target: T12, AXL (Homo sapiens, UniProt P30530); experiment: HotSpot kinase assay
T12 construct: purchased Reaction Biology Corporation

PDK3/PDHK3 = target: T13, PDK3/PDHK3 (Homo sapiens, UniProt Q15120); experiment: HotSpot kinase assay
T13 construct: purchased Reaction Biology Corporation

CHK2 = target: T14, CHK2 (Homo sapiens, UniProt O96017); experiment: HotSpot kinase assay
T14 construct: purchased Reaction Biology Corporation

MEK2 = target: T15, MEK2 (Homo sapiens, UniProt P36507); experiment: HotSpot kinase assay
T15 construct: purchased Reaction Biology Corporation

CDK6/cyclin D1 = target: T16, CDK6/cyclin D1 (Homo sapiens, UniProt Q00534); experiment: HotSpot kinase assay
T16 construct: purchased Reaction Biology Corporation

ERN1/IRE1 = target: T17, ERN1/IRE1 (Homo sapiens, UniProt O75460); experiment: HotSpot kinase assay
T17 construct: purchased Reaction Biology Corporation

PKAcb = target: T18, PKAcb (Homo sapiens, UniProt P22694); experiment: HotSpot kinase assay
T18 construct: purchased Reaction Biology Corporation

ARK5/NUAK1 = target: T19, ARK5/NUAK1 (Homo sapiens, UniProt O60285); experiment: HotSpot kinase assay
T19 construct: purchased Reaction Biology Corporation

CDK2/CYCLIN E = target: T20, CDK2/CYCLIN E (Homo sapiens, UniProt P24941); experiment: HotSpot kinase assay
T20 construct: purchased Reaction Biology Corporation

TESK1 = target: T21, TESK1 (Homo sapiens, UniProt Q15569); experiment: HotSpot kinase assay
T21 construct: purchased Reaction Biology Corporation

PAK6 = target: T22, PAK6 (Homo sapiens, UniProt Q9NQU5); experiment: HotSpot kinase assay
T22 construct: purchased Reaction Biology Corporation

TTBK1 = target: T23, TTBK1 (Homo sapiens, UniProt Q5TCY1); experiment: HotSpot kinase assay
T23 construct: purchased Reaction Biology Corporation

NEK9 = target: T24, NEK9 (Homo sapiens, UniProt Q8TD19); experiment: HotSpot kinase assay
T24 construct: purchased Reaction Biology Corporation

MINK/MINK1 = target: T25, MINK/MINK1 (Homo sapiens, UniProt Q8N4C8); experiment: HotSpot kinase assay
T25 construct: purchased Reaction Biology Corporation

CK1g1 = target: T26, CK1g1 (Homo sapiens, UniProt Q9HCP0); experiment: HotSpot kinase assay
T26 construct: purchased Reaction Biology Corporation

MAPKAPK2 = target: T27, MAPKAPK2 (Homo sapiens, UniProt P49137); experiment: HotSpot kinase assay
T27 construct: purchased Reaction Biology Corporation

MNK2 = target: T28, MNK2 (Homo sapiens, UniProt Q9HBH9); experiment: HotSpot kinase assay
T28 construct: purchased Reaction Biology Corporation

BMPR2 = target: T29, BMPR2 (Homo sapiens, UniProt Q13873); experiment: HotSpot kinase assay
T29 construct: purchased Reaction Biology Corporation

STK32C/YANK3 = target: T30, STK32C/YANK3 (Homo sapiens, UniProt Q86UX6); experiment: HotSpot kinase assay
T30 construct: purchased Reaction Biology Corporation

STK38/NDR1 = target: T31, STK38/NDR1 (Homo sapiens, UniProt Q15208); experiment: HotSpot kinase assay
T31 construct: purchased Reaction Biology Corporation

MST4 = target: T32, MST4 (Homo sapiens, UniProt Q9P289); experiment: HotSpot kinase assay
T32 construct: purchased Reaction Biology Corporation

ZAK/MLTK = target: T33, ZAK/MLTK (Homo sapiens, UniProt Q9NYL2); experiment: HotSpot kinase assay
T33 construct: purchased Reaction Biology Corporation

ALK6/BMPR1B = target: T34, ALK6/BMPR1B (Homo sapiens, UniProt O00238); experiment: HotSpot kinase assay
T34 construct: purchased Reaction Biology Corporation

TNIK = target: T35, TNIK (Homo sapiens, UniProt Q9UKE5); experiment: HotSpot kinase assay
T35 construct: purchased Reaction Biology Corporation

KHS/MAP4K5 = target: T36, KHS/MAP4K5 (Homo sapiens, UniProt Q9Y4K4); experiment: HotSpot kinase assay
T36 construct: purchased Reaction Biology Corporation

VRK1 = target: T37, VRK1 (Homo sapiens, UniProt Q99986); experiment: HotSpot kinase assay
T37 construct: purchased Reaction Biology Corporation

CDK3/cyclin E = target: T38, CDK3/cyclin E (Homo sapiens, UniProt Q00526); experiment: HotSpot kinase assay
T38 construct: purchased Reaction Biology Corporation

SYK = target: T39, SYK (Homo sapiens, UniProt P43405); experiment: HotSpot kinase assay
T39 construct: purchased Reaction Biology Corporation

DCAMKL2 = target: T40, DCAMKL2 (Homo sapiens, UniProt Q8N568); experiment: HotSpot kinase assay
T40 construct: purchased Reaction Biology Corporation

WNK3 = target: T41, WNK3 (Homo sapiens, UniProt Q9BYP7); experiment: HotSpot kinase assay
T41 construct: purchased Reaction Biology Corporation

PRKX = target: T42, PRKX (Homo sapiens, UniProt P51817); experiment: HotSpot kinase assay
T42 construct: purchased Reaction Biology Corporation

EPHB4 = target: T43, EPHB4 (Homo sapiens, UniProt P54760); experiment: HotSpot kinase assay
T43 construct: purchased Reaction Biology Corporation

CK1a1 = target: T44, CK1a1 (Homo sapiens, UniProt P48729); experiment: HotSpot kinase assay
T44 construct: purchased Reaction Biology Corporation

CO[C@@H]1[C@H](N(C)C(=O)CCC(=O)NCc2cn(CCCS(=O)(=O)O)nn2)C[C@H]2O[C@]1(C)n1c3ccccc3c3c4c(c5c6ccccc6n2c5c31)C(=O)NC4 [CIMSS]
% Enzyme Activity (relative to DMSO controls) (TSSK3/STK22C): 61.46% | % Enzyme Activity (relative to DMSO controls) (MUSK): 2.02% | % Enzyme Activity (relative to DMSO controls) (LKB1): 37.39% | % Enzyme Activity (relative to DMSO controls) (EGFR): 16.47% | % Enzyme Activity (relative to DMSO controls) (SGK2): 22.07% | % Enzyme Activity (relative to DMSO controls) (MAST3): 104.37% | % Enzyme Activity (relative to DMSO controls) (PKAcg): 2.04% | % Enzyme Activity (relative to DMSO controls) (SRPK1): 8.28% | % Enzyme Activity (relative to DMSO controls) (MKK6): 57.24% | % Enzyme Activity (relative to DMSO controls) (p70S6K/RPS6KB1): 4.80% | % Enzyme Activity (relative to DMSO controls) (FAK/PTK2): 13.59% | % Enzyme Activity (relative to DMSO controls) (AXL): 3.52% | % Enzyme Activity (relative to DMSO controls) (PDK3/PDHK3): 94.81% | % Enzyme Activity (relative to DMSO controls) (CHK2): 25.13% | % Enzyme Activity (relative to DMSO controls) (MEK2): 66.36% | % Enzyme Activity (relative to DMSO controls) (CDK6/cyclin D1): 61.17% | % Enzyme Activity (relative to DMSO controls) (ERN1/IRE1): 8.17% | % Enzyme Activity (relative to DMSO controls) (PKAcb): 1.23% | % Enzyme Activity (relative to DMSO controls) (ARK5/NUAK1): 1.45% | % Enzyme Activity (relative to DMSO controls) (CDK2/CYCLIN E): 5.60% | % Enzyme Activity (relative to DMSO controls) (TESK1): 82.57% | % Enzyme Activity (relative to DMSO controls) (PAK6): 8.98% | % Enzyme Activity (relative to DMSO controls) (TTBK1): 66.32% | % Enzyme Activity (relative to DMSO controls) (NEK9): 2.70% | % Enzyme Activity (relative to DMSO controls) (MINK/MINK1): -1.70% and -1.95% | % Enzyme Activity (relative to DMSO controls) (CK1g1): 92.37% | % Enzyme Activity (relative to DMSO controls) (MAPKAPK2): 67.54% | % Enzyme Activity (relative to DMSO controls) (MNK2): 4.76% | % Enzyme Activity (relative to DMSO controls) (BMPR2): 49.89% | % Enzyme Activity (relative to DMSO controls) (STK32C/YANK3): 20.31% | % Enzyme Activity (relative to DMSO controls) (STK38/NDR1): 9.08% | % Enzyme Activity (relative to DMSO controls) (MST4): 1.22% | % Enzyme Activity (relative to DMSO controls) (ZAK/MLTK): 82.32% | % Enzyme Activity (relative to DMSO controls) (ALK6/BMPR1B): 87.18% | % Enzyme Activity (relative to DMSO controls) (TNIK): 1.13% | % Enzyme Activity (relative to DMSO controls) (KHS/MAP4K5): 5.14% | % Enzyme Activity (relative to DMSO controls) (VRK1): 79.87% | % Enzyme Activity (relative to DMSO controls) (CDK3/cyclin E): 12.85% | % Enzyme Activity (relative to DMSO controls) (SYK): 0.78% | % Enzyme Activity (relative to DMSO controls) (DCAMKL2): 86.26% | % Enzyme Activity (relative to DMSO controls) (WNK3): 64.44% | % Enzyme Activity (relative to DMSO controls) (PRKX): 9.38% | % Enzyme Activity (relative to DMSO controls) (EPHB4): 18.92% | % Enzyme Activity (relative to DMSO controls) (CK1a1): 97.55%

Source: publication PMC9569420 (Communications Biology, 2022)
